Results: patent US9751885B2, “Cyclopropanamine compound and use thereof” (Takeda Pharmaceutical Company Limited, priority 2012, dated 2017)
Where a name gives a salt, the structure may show the parent alone.

Protein sequences, listed by entry. Tags and fused reporters are not part of them.
UniProt P21397, whole entry: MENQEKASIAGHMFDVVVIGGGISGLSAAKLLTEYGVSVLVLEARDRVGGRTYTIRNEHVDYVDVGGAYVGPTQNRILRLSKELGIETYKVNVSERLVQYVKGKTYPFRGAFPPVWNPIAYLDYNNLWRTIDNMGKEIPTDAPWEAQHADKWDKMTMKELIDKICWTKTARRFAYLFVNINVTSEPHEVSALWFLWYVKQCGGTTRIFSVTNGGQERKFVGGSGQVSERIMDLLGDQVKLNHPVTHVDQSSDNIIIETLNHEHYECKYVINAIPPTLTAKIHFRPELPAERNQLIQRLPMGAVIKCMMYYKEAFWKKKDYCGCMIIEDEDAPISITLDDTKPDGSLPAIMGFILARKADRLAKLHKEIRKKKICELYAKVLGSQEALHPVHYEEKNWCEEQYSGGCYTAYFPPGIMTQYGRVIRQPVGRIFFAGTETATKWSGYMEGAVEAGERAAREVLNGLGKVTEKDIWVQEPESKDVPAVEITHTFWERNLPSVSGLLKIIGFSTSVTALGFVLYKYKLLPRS
UniProt P27338, whole entry: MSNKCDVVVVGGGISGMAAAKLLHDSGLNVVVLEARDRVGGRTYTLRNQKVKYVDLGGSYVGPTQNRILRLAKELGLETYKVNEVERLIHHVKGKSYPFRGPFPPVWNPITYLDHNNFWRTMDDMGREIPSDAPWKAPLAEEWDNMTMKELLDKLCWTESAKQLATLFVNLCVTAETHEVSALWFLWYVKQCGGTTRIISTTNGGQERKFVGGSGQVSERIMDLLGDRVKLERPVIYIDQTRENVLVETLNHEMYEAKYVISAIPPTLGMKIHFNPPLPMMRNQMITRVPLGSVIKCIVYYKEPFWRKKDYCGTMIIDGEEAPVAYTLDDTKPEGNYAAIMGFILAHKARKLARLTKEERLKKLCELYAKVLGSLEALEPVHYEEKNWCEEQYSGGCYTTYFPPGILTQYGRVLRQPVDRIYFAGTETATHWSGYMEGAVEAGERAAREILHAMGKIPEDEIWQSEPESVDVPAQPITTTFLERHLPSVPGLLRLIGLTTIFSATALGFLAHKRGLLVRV

Tests used:
MAO-A enzyme = MAO-A enzyme (Homo sapiens (Human), UniProt P21397); test: Measurement of MAO-A inhibitory activity (MAO-Glo Assay); format: biochemical
MAO-B enzyme = MAO-B enzyme (Homo sapiens (Human), UniProt P27338); test: Measurement of MAO-B inhibitory activity (MAO-Glo Assay); conditions: read-out: MAO-B IC50 value;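 further: luminescence read-out, compound preincubated 10 min with enzyme then reacted 60 min at room temperature, inhibition relative to enzyme reaction without compound, blank lacking enzyme and compound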

| Structure (SMILES) | IC50 (MAO-A enzyme) [µM] | IC50 (MAO-B enzyme) [µM] |
| --- | --- | --- |
| Cn1cc(NC(=O)c2ccc(F)c([C@@H]3C[C@H]3NC3CCC3)c2)cn1 (relative stereo) [Example 228, 3-(trans-2-(cyclobutylamino)cyclopropyl)-4-fluoro-N-(1-methyl-1H-pyrazol-4-yl)benzamide hydrochloride] | > 10 | > 10 |
| COc1ccc([C@@H]2C[C@H]2NC2CCOCC2)cc1C(=O)NC1CCCC1 (relative stereo) [Example 214, N-cyclopentyl-2-methoxy-5-(trans-2-(tetrahydro-2H-pyran-4-ylamino)cyclopropyl)benzamide hydrochloride] | > 10 | > 10 |
| COc1ccc([C@@H]2C[C@H]2NC2CCC(F)(F)CC2)cc1C(=O)Nc1cnn(C)c1 (relative stereo) [Example 227, 5-(trans-2-((4,4-difluorocyclohexyl)amino)cyclopropyl)-2-methoxy-N-(1-methyl-1H-pyrazol-4-yl)benzamide dihydrochloride] | > 10 | > 10 |
| N[C@@H]1C[C@H]1c1cccc(C(=O)Nc2ccc(-c3ncccn3)cc2)c1 (relative stereo) [Example 54, 3-(trans-2-aminocyclopropyl)-N-(4-(pyrimidin-2-yl)phenyl)benzamide dihydrochloride] | > 10 | 3.7 |
| O=C(NC1CCN(Cc2ccccc2)CC1)c1cccc([C@@H]2C[C@H]2NCC2CC2)c1 (relative stereo) [Example 119, N-(1-benzylpiperidin-4-yl)-3-(trans-2-((cyclopropylmethyl)amino)cyclopropyl)benzamide bis (trifluoroacetate)] | > 10 | > 10 |
| Cn1cc(NC(=O)c2cc([C@@H]3C[C@H]3NCC3CC3)ccc2F)cn1 (relative stereo) [Example 91, 5-(trans-2-((cyclopropylmethyl)amino)cyclopropyl)-2-fluoro-N-(1-methyl-1H-pyrazol-4-yl)benzamide dihydrochloride] | > 10 | > 10 |
| Cc1nn(C)cc1NC(=O)c1cccc([C@@H]2C[C@H]2NC2CCC(F)(F)CC2)c1 (relative stereo) [Example 242, 3-(trans-2-((4,4-difluorocyclohexyl)amino)cyclopropyl)-N-(1,3-dimethyl-1H-pyrazol-4-yl)benzamide dihydrochloride] | > 10 | > 10 |
| O=C(Nc1ccccc1F)c1cccc([C@@H]2C[C@H]2NCC2CC2)c1 (relative stereo) [Example 121, 3-(trans-2-((cyclopropylmethyl)amino)cyclopropyl)-N-(2-fluorophenyl) benzamide trifluoroacetate] | > 10 | > 10 |
| Cn1nc(C(C)(C)C)cc1NC(=O)c1cccc([C@@H]2C[C@H]2NCC2CC2)c1 (relative stereo) [Example 141, N-(3-tert-butyl-1-methyl-1H-pyrazol-5-yl)-3-(trans-2-((cyclopropylmethyl)amino)cyclopropyl)benzamide bis(trifluoroacetate)] | > 10 | > 10 |
| COc1ccc([C@@H]2C[C@H]2N)cc1C(=O)NC1CCCC1 (relative stereo) [Example 76, 5-(trans-2-aminocyclopropyl)-N-cyclopentyl-2-methoxybenzamide hydrochloride] | > 10 | > 10 |
| Cc1noc(C)c1NC(=O)c1cccc([C@@H]2C[C@H]2NCC2CC2)c1 (relative stereo) [Example 142, 3-(trans-2-((cyclopropylmethyl)amino)cyclopropyl)-N-(3,5-dimethyl-1,2-oxazol-4-yl)benzamide trifluoroacetate] | > 10 | > 10 |
| O=C(Nc1cccc(-c2nnc3n2CCCCC3)c1)c1cccc([C@@H]2C[C@H]2NCC2CC2)c1 (relative stereo) [Example 133, 3-(trans-2-((cyclopropylmethyl)amino)cyclopropyl)-N-(3-(6,7,8,9-tetrahydro-5H-[1,2,4]triazolo[4,3-a]azepin-3-yl)phenyl)benzamide trifluoroacetate] | > 10 | > 10 |
| N[C@@H]1C[C@H]1c1ccc(C(=O)Nc2cn[nH]c2)cc1 (relative stereo) [Example 5, 4-(trans-2-aminocyclopropyl)-N-(1H-pyrazol-4-yl)benzamide dihydrochloride] | 2.9 | > 10 |
| COc1cc(C(=O)Nc2nnc(C)s2)cc([C@@H]2C[C@H]2NCC2CC2)c1 (relative stereo) [Example 163, 3-(trans-2-((cyclopropylmethyl)amino)cyclopropyl)-5-methoxy-N-(5-methyl-1,3,4-thiadiazol-2-yl)benzamide dihydrochloride] | > 10 | > 10 |
| COc1ccc([C@@H]2C[C@H]2NCC2CC2)cc1C(=O)Nc1cnn(C)c1 (relative stereo) [Example 94, 5-(trans-2-((cyclopropylmethyl)amino)cyclopropyl)-2-methoxy-N-(1-methyl-1H-pyrazol-4-yl)benzamide dihydrochloride] | > 10 | > 10 |
| O=C(Nc1nc2ccc(Oc3ccccc3)cc2s1)c1cccc([C@@H]2C[C@H]2NCC2CC2)c1 (relative stereo) [Example 135, 3-(trans-2-((cyclopropylmethyl)amino)cyclopropyl)-N-(6-phenoxy-1,3-benzothiazol-2-yl)benzamide trifluoroacetate] | > 10 | > 10 |
| CC(C)(C)CN[C@@H]1C[C@H]1c1cccc(C(=O)NC2CCOCC2)c1 (relative stereo) [Example 153, 3-(trans-2-((2,2-dimethylpropyl)amino)cyclopropyl)-N-(tetrahydro-2H-pyran-4-yl)benzamide hydrochloride] | > 10 | > 10 |
| COc1ccc([C@@H]2C[C@H]2NCC2CC2)cc1C(=O)NC1CCOCC1 (relative stereo) [Example 160, 5-(trans-2-((cyclopropylmethyl)amino)cyclopropyl)-2-methoxy-N-(tetrahydro-2H-pyran-4-yl)benzamide hydrochloride] | > 10 | > 10 |
| Cc1nnc(NC(=O)c2ccc(C)c([C@@H]3C[C@H]3NCC3CC3)c2)s1 (relative stereo) [Example 161, 3-(trans-2-((cyclopropylmethyl)amino)cyclopropyl)-4-methyl-N-(5-methyl-1,3,4-thiadiazol-2-yl)benzamide dihydrochloride] | > 10 | > 10 |
| O=C(c1cccc([C@@H]2C[C@H]2NCC2CC2)c1)N1CCCC1 (relative stereo) [Example 61, (3-(trans-2-((cyclopropylmethyl)amino)cyclopropyl)phenyl)(pyrrolidin-1-yl)methanone hydrochloride] | > 10 | > 10 |
| O=C(Nc1cnn(CC2CC2)c1)c1cccc([C@@H]2C[C@H]2NC2CCN(CC(F)(F)F)CC2)c1 (relative stereo) [Example 203, N-(1-(cyclopropylmethyl)-1H-pyrazol-4-yl)-3-(trans-2-((1-(2,2,2-trifluoroethyl)piperidin-4-yl)amino)cyclopropyl) benzamide trihydrochloride] | > 10 | > 10 |
| Cc1cc(NC(=O)c2cccc([C@@H]3C[C@H]3N)c2)n(C)n1 (relative stereo) [Example 180, 3-(trans-2-aminocyclopropyl)-N-(1,3-dimethyl-1H-pyrazol-5-yl)benzamide dihydrochloride] | > 10 | > 10 |
| O=C(NC1CCC(F)(F)CC1)c1cccc([C@@H]2C[C@H]2NCC2CCOCC2)c1 (relative stereo) [Example 84, N-(4,4-difluorocyclohexyl)-3-(trans-2-((tetrahydro-2H-pyran-4-ylmethyl)amino)cyclopropyl)benzamide hydrochloride] | > 10 | > 10 |
| O=C(NC1CCCC1)c1cccc([C@@H]2C[C@H]2NC2CCS(=O)(=O)CC2)c1 (relative stereo) [Example 198, N-cyclopentyl-3-(trans-2-((1,1-dioxidotetrahydro-2H-thiopyran-4-yl)amino)cyclopropyl)benzamide hydrochloride] | > 10 | > 10 |
| CN(C(=O)c1cccc([C@@H]2C[C@H]2N)c1)c1ccccc1 (relative stereo) [Example 68, 3-(trans-2-aminocyclopropyl)-N-methyl-N-phenylbenzamide hydrochloride] | 0.49 | 6.1 |
| COc1cc(OC)nc(-c2ccc(NC(=O)c3cccc([C@@H]4C[C@H]4NCC4CC4)c3)cc2)n1 (relative stereo) [Example 128, 3-(trans-2-((cyclopropylmethyl)amino)cyclopropyl)-N-(4-(4,6-dimethoxypyrimidin-2-yl)phenyl)benzamide trifluoroacetate] | > 10 | > 10 |
| O=C(NCC1CC(F)(F)C1)c1cccc([C@@H]2C[C@H]2NCC2CC2)c1 (relative stereo) [Example 116, 3-(trans-2-((cyclopropylmethyl)amino)cyclopropyl)-N-((3,3-difluorocyclobutyl)methyl) benzamide trifluoroacetate] | > 10 | > 10 |
| Cc1nc(-c2cccc(NC(=O)c3cccc([C@@H]4C[C@H]4NCC4CC4)c3)c2)cs1 (relative stereo) [Example 131, 3-(trans-2-((cyclopropylmethyl)amino)cyclopropyl)-N-(3-(2-methyl-1,3-thiazol-4-yl)phenyl)benzamide trifluoroacetate] | > 10 | > 10 |
| N[C@@H]1C[C@H]1c1cccc(C(=O)Nc2cccc(-c3ncccn3)c2)c1 (relative stereo) [Example 69, 3-(trans-2-aminocyclopropyl)-N-(3-(pyrimidin-2-yl)phenyl)benzamide dihydrochloride] | 6 | 2.7 |
| O=C(Nc1ccc(-c2ncccn2)cc1)c1cccc([C@@H]2C[C@H]2NC2CCS(=O)(=O)CC2)c1 (relative stereo) [Example 193, 3-(trans-2-((1,1-dioxidotetrahydro-2H-thiopyran-4-yl)amino)cyclopropyl)-N-(4-(pyrimidin-2-yl)phenyl)benzamide dihydrochloride] | > 10 | > 10 |
